This is an account of results in patent publication US20240181056A1, “CHIMERIC ANTIGEN RECEPTOR (CAR)-T CELLS” (Imperial College Innovations Limited, priority 2021, published 2024).

The target of the assay is CD4 antigen (T-cell surface glycoprotein CD4 [Homo sapiens]) (human) (UniProt P01730). The experiment in a line: cell-based or functional assay.

Where “and” joins values, the source holds several entries; their conditions need not be identical. Identical values can stand only once.

Consider “CART4 chimeric antigen receptor (anti-CD4 CAR; scFv of Hu5A8 fused to CD8 hinge/transmembrane domain, CD28 endodomain, 4-1BB endodomain and CD3ζ chain)”, for which the ablation of CD4+ malignant cells in ATLL patient PBMCs, 4-hour co-culture stood at 80%; the lysis of CD4+ cells in autologous PBMCs, E:T ratio 3:1, 4-hour co-culture came out at 94%; the reduction of malignant T cells in primary CTCL patient samples, 4-hour co-culture was 80% and 60%.
